Results as given in PubChem BioAssay AID585 (National Center for Advancing Translational Sciences (NCATS), 2007).
This is a selection; strong and weak results do not stand in their true shares. Some of these compounds have results that are not shown, active ones among them. Active and inactive are the calls of the source. The call rests on the fitted dose curve.

By UniProt entry, the sequences of proteins in these tests, tags left out.
UniProt P00811, whole entry: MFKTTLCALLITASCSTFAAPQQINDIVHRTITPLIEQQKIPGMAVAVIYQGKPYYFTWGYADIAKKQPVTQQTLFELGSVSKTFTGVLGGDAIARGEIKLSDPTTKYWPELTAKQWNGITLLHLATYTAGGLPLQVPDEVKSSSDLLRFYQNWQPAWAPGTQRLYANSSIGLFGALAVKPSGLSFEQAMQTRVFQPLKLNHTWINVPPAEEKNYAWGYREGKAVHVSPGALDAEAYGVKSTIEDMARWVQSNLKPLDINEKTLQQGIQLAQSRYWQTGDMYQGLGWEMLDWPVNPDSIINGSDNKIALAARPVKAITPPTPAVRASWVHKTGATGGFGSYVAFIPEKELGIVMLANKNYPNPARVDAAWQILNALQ

Biological target: Beta-lactamase (Escherichia coli (strain K12)) (UniProt P00811)
Assay: Promiscuous and Specific Inhibitors of AmpC Beta-Lactamase (assay without detergent); further: % of control where 0% means no effect
Details: AmpC nitrocefin hydrolysis, absorbance 480 nm, no detergent; at 5.75 µM unless noted
Description: NIH Molecular Libraries Screening Centers Network [MLSCN]
NIH Chemical Genomics Center [NCGC]
PI Name: Shoichet, Brian K.
This aggregation profiling approach exploits the sensitivity of aggregate formation to detergent. Inhibition of b-lactamase is measured in the presence and absence of 0.01% Triton X-100. See Pubchem assay "Promiscuous and Specific Inhibitors of AmpC Beta-Lactamase (assay with detergent)" for related screen. Compounds that inhibit only in the absence of detergent are considered likely promiscuous aggregators.
A screen of 1,030 compounds was performed in Brian Shoichet's lab in 96-well format. AmpC activity was measured by following the absorbance at 480 nm. Nitrocefin is a chromogenic substrate: while nitrocefin is yellow (lmax 390 nm), the product of its hydrolysis is red (lmax 486 nm, 17,000 M-1). AmpC beta lactamase was provided by Brian Shoichet and Brian Feng, UCSF.
NCGC Assay Protocol Summary:
20 mM phosphate buffer, pH 7.0
Triton X-100: No Detergent screen: 0.0001%, Detergent screen: 0.01%.
Buffer in columns 3 and 4 as negative control (no enzyme).
5.3 nM AmpC in columns 1, 2, 5-48. Titration of UCSF compound 9 control (from 10 mM, then 1:2) pin-transferred to column 2. Column 1 is neutral (100% activity).
Six uL of reagents were dispensed to 1536-well Greiner black clear bottom plates. Compounds and controls (23 nL) were transferred via Kalypsys PinTool. The plates were incubated for 15 min at room temperature, and then 2 uL of 800 uM solution of nitrocefin was added to start the reaction. The plates were immediately transferred to and read every 20 seconds for 4 min on ViewLux (Perkin-Elmer) High-throughput CCD imager using 480 nm absorbance protocol. During dispense, reagent bottles were kept submerged into 4 deg C water bath.
Keywords: NIH Roadmap, MLSCN, MLI, MLSMR, qHTS, NCGC, AmpC Beta-Lactamase, Aggregation.

Structure (SMILES)	activity change, negative = inhibition
CN(C)c1cccc(C(=O)NCC2(N(C)C)CCCCC2)c1	inactive: -5% [at 28.7 µM]
O=C(OC1CN2CCC1CC2)C(CO)(c1ccccc1)c1ccccc1 (stereo not given)	inactive: 47.3% [at 28.7 µM]
CN1CC[C@H](OC(=O)[C@](O)(c2ccccc2)C2CCCC2)C1	inactive: 0.6%
CN1CCC[C@H](OC(=O)[C@](O)(c2ccccc2)C2CCCC2)C1	inactive: 3.6%
C=C(C)C#C[C@@](O)(C(=O)OC1CCN(C)CC1)c1ccccc1	inactive: 4.3%
